Data published in ChEMBL document CHEMBL5244269, “Improving metabolic stability and removing aldehyde oxidase liability in a 5-azaquinazoline series of IRAK4 inhibitors” (Bioorg Med Chem, 2020).

Key:
Homo sapiens [1] = species on record: Homo sapiens; experiment: Selectivity index, ratio of IC50 for inhibition of FLT3 (unknown origin) to IC50 for inhibition of IRAK4 (unknown origin)
Homo sapiens [2] = species on record: Homo sapiens; experiment: Selectivity index, ratio of IC50 for inhibition of PI3Kdelta (unknown origin) to IC50 for inhibition of IRAK4 (unknown origin)
Homo sapiens [3] = species on record: Homo sapiens; experiment: Selectivity index, ratio of IC50 for inhibition of BTK (unknown origin) to IC50 for inhibition of IRAK4 (unknown origin)
Homo sapiens [4] = species on record: Homo sapiens; experiment: Selectivity index, ratio of IC50 for inhibition of TRKA (unknown origin) to IC50 for inhibition of IRAK4 (unknown origin)
Homo sapiens [5] = species on record: Homo sapiens; experiment: Selectivity index, ratio of IC50 for inhibition of TRKB (unknown origin) to IC50 for inhibition of IRAK4 (unknown origin)
Homo sapiens [6] = species on record: Homo sapiens; experiment: Selectivity index, ratio of IC50 for inhibition of IRAK1 (unknown origin) to IC50 for inhibition of IRAK4 (unknown origin)
Homo sapiens [7] = species on record: Homo sapiens; experiment: Selectivity index, ratio of IC50 for inhibition of TRKC (unknown origin) to IC50 for inhibition of IRAK4 (unknown origin)

Structure (SMILES) | Ratio IC50 (Homo sapiens [1]) | Ratio IC50 (Homo sapiens [2]) | Ratio IC50 (Homo sapiens [3]) | Ratio IC50 (Homo sapiens [4]) | Ratio IC50 (Homo sapiens [5]) | Ratio IC50 (Homo sapiens [6]) | Ratio IC50 (Homo sapiens [7])
Cc1ncc(-c2nc3c(NC(C)C)nc(Nc4cnn(C5CC6(C5)CN(C)C6)c4)nc3cc2F)cn1 | 750 | 120 | > 1000 | 240 | 470 | 600 | 290
Cc1ncc(-c2nc3c(OC4(C)CC4)nc(Nc4cnn(C5CCN(C)CC5)c4)nc3cc2F)cn1 | > 1000 | 18 | > 1000 | 90 | 250 | 380 | 90
